Laboratory results taken from US11589575B2, “Injectable preserving medium for preserving cells from placental blood, from bone marrow and from peripheral blood” (ETABLISSEMENT FRANCAIS DU SANG, priority 2015, dated 2023).

Experiments:
[1] = Stability of the preserving medium (pH, ageing); type: physicochemical; settings: accelerated ageing conditions at 37° C.
Description: Human albumin is commercially available in injectable quality, in particular from Baxter or under the trade names Albunorm®, Flexbumin®, Vialebex® or Ydralbum®. The solution comprises at least 1 g/l of albumin, preferably at least 5, 10 or 15 g/l. The amount of human albumin in the solution may be between 1 and 100 g/l of solution, preferably between 5 and 40 g/l of solution, more preferably between 5 and 20 g/l, and further preferably 15 g/l of solution. In other words, the solution comprises 0.1 to 10% of human albumin, preferably 0.5 to 4%, more preferably 0.5 to 2%, and further preferably 1.5%.
Finally, the components of 12 pharmaceutical preparations were included in the formulation of the cell preserving biological medium. […] These pouches are used in the pharmaceutical industry to package injectable preparations, and by suppliers of biological reagents for the preservation inter alia of culture media.

[2] = test system: placental blood CD34+ cells amplified ex vivo; settings: periods longer than 6 hours; cited from earlier work

## Product C1: Human albumin 20% solution (human albumin 200 g, caprylic acid, qs 1 litre)
[1]
  stabilising the medium: major role in stabilising the medium

## 4% solution of human albumin: 4% solution of human albumin used to resuspend cells for injection
[2]
  functionality of the progenitors and of HSCs: major loss of functionality
